The assay has as its target human mGluR5 (Homo sapiens, UniProt P41594). Put plainly: Cell-based functional Ca2+ mobilization assay (FDSS), potentiation of glutamate EC20 response, H10H cell line. The settings on record: HEK H10H cells; for Emax (%): maximum average response at a single concentration, as percent of maximal glutamate response, glutamate EC20; for pEC50: positive allosteric modulation in presence of glutamate EC20, concentration in mol/L.

Chains of the proteins cited; added tags and fusions are not shown. Residues count along the entry.
UniProt P41594, 21-1180 isoform 2 limits assumed: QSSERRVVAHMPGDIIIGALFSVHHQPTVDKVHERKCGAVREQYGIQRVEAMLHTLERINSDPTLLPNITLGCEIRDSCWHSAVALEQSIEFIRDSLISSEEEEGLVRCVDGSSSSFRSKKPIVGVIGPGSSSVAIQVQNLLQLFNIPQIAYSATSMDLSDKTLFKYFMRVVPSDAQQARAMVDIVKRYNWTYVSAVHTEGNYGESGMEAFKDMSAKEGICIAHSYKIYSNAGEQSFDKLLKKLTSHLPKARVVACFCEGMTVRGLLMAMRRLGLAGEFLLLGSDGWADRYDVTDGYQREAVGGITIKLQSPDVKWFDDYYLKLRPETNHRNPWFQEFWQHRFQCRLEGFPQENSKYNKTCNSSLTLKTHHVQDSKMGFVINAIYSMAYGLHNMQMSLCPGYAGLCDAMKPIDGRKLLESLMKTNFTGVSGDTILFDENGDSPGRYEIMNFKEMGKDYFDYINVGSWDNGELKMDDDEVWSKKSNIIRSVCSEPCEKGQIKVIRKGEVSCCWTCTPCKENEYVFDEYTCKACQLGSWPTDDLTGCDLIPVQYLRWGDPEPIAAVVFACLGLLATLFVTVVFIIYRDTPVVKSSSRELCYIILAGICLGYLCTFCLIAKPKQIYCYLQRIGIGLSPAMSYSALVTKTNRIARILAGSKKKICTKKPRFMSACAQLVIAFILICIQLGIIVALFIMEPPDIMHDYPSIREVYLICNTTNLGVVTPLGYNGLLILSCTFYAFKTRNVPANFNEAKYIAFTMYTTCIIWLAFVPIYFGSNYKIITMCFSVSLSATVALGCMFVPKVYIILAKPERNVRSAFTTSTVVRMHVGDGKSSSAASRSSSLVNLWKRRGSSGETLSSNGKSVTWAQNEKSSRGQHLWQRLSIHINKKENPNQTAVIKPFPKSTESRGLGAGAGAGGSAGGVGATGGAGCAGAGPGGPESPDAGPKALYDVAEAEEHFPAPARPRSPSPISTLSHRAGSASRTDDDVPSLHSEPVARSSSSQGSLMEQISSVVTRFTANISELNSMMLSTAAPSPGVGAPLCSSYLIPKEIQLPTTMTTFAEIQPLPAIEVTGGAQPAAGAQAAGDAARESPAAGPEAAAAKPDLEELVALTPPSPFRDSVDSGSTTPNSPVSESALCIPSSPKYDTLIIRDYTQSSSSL

Consider `O=C1c2oc(COc3ccccc3)nc2CCN1c1ccc(F)cc1F`, for which the “Emax (%)” value is 74% and the pEC50 worked out at 6.37.
For `O=C1c2oc(COc3ccccc3)nc2CCCN1c1ccc(F)cc1`, in that order: 76% and 5.76.

By pEC50 is commonly meant the negative decadic logarithm of the EC50, by convention in mol/L.

(Values after patent publication US20130252943A1, “BICYCLIC OXAZOLE LACTAMS AS ALLOSTERIC MODULATORS OF MGLUR5 RECEPTORS” (VANDERBILT UNIVERSITY, priority 2012, published 2013).)
